# From patent publication US20260382581A1, “COMPOSITIONS COMPRISING CYTISINE IN THE TREATMENT AND/OR PREVENTION OF ADDICTION IN SUBJECTS IN NEED THEREOF” (published 2026)
# Marks after values point to notes of the source that are not given here.
# Test: claude: adverse events, incl. those leading to dose reduction, interruption or discontinuation
# Description: Cytisinicline was well tolerated and no serious adverse events were reported. Similar rates of adverse events (AE's) were observed between treatment arms (54.7% in the placebo arm vs. 50.9% in the cytisinicline arm). The most commonly reported (>5%) AEs in the placebo arm were anxiety, headache, upper respiratory tract infection, nausea, and Covid-19 infection. In the cytisinicline arm, >5% AEs reported were sleep disturbances, anxiety, headache, fatigue, and upper respiratory tract infection.
# A second measurement consisted of biochemically verified continuous vaping abstinence at any time during treatment, with vaping abstinence at Week 3-6 or Week 6-9 for of cytisinicline treatment vs placebo. 7-day point prevalence rates were compared for vaping abstinence (Week 2 to 12) (FIG. 62). An additional measurement included reduction in daily vaping as measured by cotinine, where cytisinicline treatment vs placebo for a reduction in nicotine vaping using weekly quantitative cotinine levels from Week 2 to Week 12. Safety was assessed by adverse effects and serious adverse effects, considering number, severity, and attribution to study drug. Early beneficial effect was observed and continued throughout the 12 weeks with some weeks at or close to statistical significance (weeks 4, 6, 7, 8, 9, and 12) (FIGS. 63-65). Cotinine values less than 1 were converted to 1 due to extreme asymmetry (FIG. 65)
# Adverse Events are coded using MedDRA version 23.1.
# [1] = Action Taken With Study Drug, Safety Set, N = 106
# [2] = Relationship, Safety Set, N = 106
compound,measurement,setting,value
O=c1cccc2n1C[C@@H]1CNC[C@H]2C1,AEs reported in >5%,3 mg TID 12 weeks,"sleep disturbances, anxiety, headache, fatigue, and upper respiratory tract infection"
same,serious adverse events,3 mg TID 12 weeks,no serious adverse events were reported
same,tolerability,3 mg TID 12 weeks,well tolerated
same,Any Serious Adverse Events,3 mg TID 12 wks (N = 106),0(0) n (%)
same,At Least One TEAE,3 mg TID 12 wks (N = 106),54(50.9) n (%)
same,"TEAE, Mild",3 mg TID 12 wks (N = 106),50(47.2) n (%)
same,"TEAE, Moderate",3 mg TID 12 wks (N = 106),16(15.1) n (%)
same,"TEAE, Related",3 mg TID 12 wks (N = 106),30(28.3) n (%)
same,"TEAE, Severe","3 mg TID 12 wks (N = 106), Abnormal Dreams",1(0.9)* n (%)
same,"Abnormal dreams, %","12 wks, N = 106",12.3%
same,"Anxiety, %","12 wks, N = 106",9.4%
same,"At Least One TEAE, %","12 wks, N = 106",50.9%
same,"COVID-19, %","12 wks, N = 106",2.8%
same,"Fatigue, %","12 wks, N = 106",5.7%
same,"Headache, %","12 wks, N = 106",6.6%
same,"Insomnia, %","12 wks, N = 106",10.4%
same,"Nausea, %","12 wks, N = 106",4.7%
same,"Upper respiratory tract infection, %","12 wks, N = 106",5.7%
same,"TEAE, Dose Interrupted, events",[1],1 Events
same,"TEAE, Dose Interrupted, percent of subjects",[1],0.9%
same,"TEAE, Dose Interrupted, subjects",[1],1 n
same,"TEAE, Dose Not Changed, events",[1],101 Events
same,"TEAE, Dose Not Changed, percent of subjects",[1],48.1%
same,"TEAE, Dose Not Changed, subjects",[1],51 n
same,"TEAE, Dose Reduced, events",[1],3 Events
same,"TEAE, Dose Reduced, subjects",[1],3 n
same,"TEAE, Drug Withdrawn, events",[1],7 Events
same,"TEAE, Drug Withdrawn, percent of subjects",[1],3.8%
same,"TEAE, Drug Withdrawn, subjects",[1],4 n
same,"TEAE, action Not Applicable, events",[1],7 Events
same,"TEAE, action Not Applicable, percent of subjects",[1],4.7%
same,"TEAE, action Not Applicable, subjects",[1],5 n
same,TEAE outcome Fatal,"Outcome, Safety Set, N = 106",0 n
same,"TEAE outcome Not recovered/Not resolved, percent of subjects","Outcome, Safety Set, N = 106",13.2%
same,"TEAE outcome Not recovered/Not resolved, subjects","Outcome, Safety Set, N = 106",14 n
same,TEAE outcome Recovered/Resolved with sequelae,"Outcome, Safety Set, N = 106",0 n
same,"TEAE outcome Recovered/Resolved, percent of subjects","Outcome, Safety Set, N = 106",44.3%
same,"TEAE outcome Recovered/Resolved, subjects","Outcome, Safety Set, N = 106",47 n
same,"TEAE outcome Recovering/Resolving, percent of subjects","Outcome, Safety Set, N = 106",2.8%
same,"TEAE outcome Recovering/Resolving, subjects","Outcome, Safety Set, N = 106",3 n
same,"Definite related TEAE, events",[2],3 Events
same,"Definite related TEAE, percent of subjects",[2],2.8%
same,"Definite related TEAE, subjects",[2],3 n
same,"Not Related TEAE (sub-category), events",[2],55 Events
same,"Not Related TEAE (sub-category), percent of subjects",[2],30.2%
same,"Not Related TEAE (sub-category), subjects",[2],32 n
same,"Not Related TEAE (total: not related and unlikely), events",[2],65 Events
same,"Not Related TEAE (total: not related and unlikely), percent of subjects",[2],35.8%
same,"Not Related TEAE (total: not related and unlikely), subjects",[2],38 n
same,"Possible related TEAE, events",[2],29 Events
same,"Possible related TEAE, percent of subjects",[2],16.0%
same,"Possible related TEAE, subjects",[2],17 n
same,"Probable related TEAE, events",[2],22 Events
same,"Probable related TEAE, percent of subjects",[2],15.1%
same,"Probable related TEAE, subjects",[2],16 n
same,"Related TEAE, events",[2],54 Events
same,"Related TEAE, percent of subjects",[2],28.3%
same,"Related TEAE, subjects",[2],30 n
same,"Unlikely related TEAE, events",[2],10 Events
same,"Unlikely related TEAE, percent of subjects",[2],8.5%
same,"Unlikely related TEAE, subjects",[2],9 n
same,"AE, events","Safety Set, N = 106",123 Events
same,"At Least One AE, percent of subjects","Safety Set, N = 106",52.8%
same,"At Least One AE, subjects","Safety Set, N = 106",56 n
same,At Least One Related Serious TEAE,"Safety Set, N = 106",0 n
same,At Least One Serious TEAE,"Safety Set, N = 106",0 n
same,"At Least One TEAE Leading to Dose Reduction, Dose Interrupted or Study Drug Discontinuation, subjects","Safety Set, N = 106",7 n
same,"TEAE leading to dose reduction, interruption or discontinuation: Abdominal discomfort, subjects","Safety Set, N = 106",1 n
same,"TEAE leading to dose reduction, interruption or discontinuation: Abnormal dreams, subjects","Safety Set, N = 106",1 n
same,"TEAE leading to dose reduction, interruption or discontinuation: Anal fissure, subjects","Safety Set, N = 106",1 n
same,"TEAE leading to dose reduction, interruption or discontinuation: Anxiety, subjects","Safety Set, N = 106",2 n
same,"TEAE leading to dose reduction, interruption or discontinuation: Depression, subjects","Safety Set, N = 106",0 n
same,"TEAE leading to dose reduction, interruption or discontinuation: Fatigue, subjects","Safety Set, N = 106",1 n
same,"TEAE leading to dose reduction, interruption or discontinuation: Headache, subjects","Safety Set, N = 106",0 n
same,"TEAE leading to dose reduction, interruption or discontinuation: Insomnia, subjects","Safety Set, N = 106",2 n
same,"TEAE leading to dose reduction, interruption or discontinuation: Irritability, subjects","Safety Set, N = 106",1 n
same,"TEAE leading to dose reduction, interruption or discontinuation: Nausea, subjects","Safety Set, N = 106",0 n
same,"TEAE leading to dose reduction, interruption or discontinuation: Panic attack, subjects","Safety Set, N = 106",2 n
same,"TEAE leading to dose reduction, interruption or discontinuation: Pregnancy, subjects","Safety Set, N = 106",0 n
same,"TEAE: Abdominal discomfort, percent","Safety Set, N = 106",(0.9) %
same,"TEAE: Abdominal discomfort, subjects","Safety Set, N = 106",1 n
same,"TEAE: Abnormal dreams, percent","Safety Set, N = 106",(12.3) %
same,"TEAE: Abnormal dreams, subjects","Safety Set, N = 106",13 n
same,"TEAE: Agitation, subjects","Safety Set, N = 106",0 n
same,"TEAE: Akathisia, percent","Safety Set, N = 106",(0.9) %
same,"TEAE: Akathisia, subjects","Safety Set, N = 106",1 n
same,"TEAE: Alanine aminotransferase increased, subjects","Safety Set, N = 106",0 n
same,"TEAE: Alveolar osteitis, subjects","Safety Set, N = 106",0 n
same,"TEAE: Anal fissure, percent","Safety Set, N = 106",(0.9) %
same,"TEAE: Anal fissure, subjects","Safety Set, N = 106",1 n
same,"TEAE: Animal bite, percent","Safety Set, N = 106",(0.9) %
same,"TEAE: Animal bite, subjects","Safety Set, N = 106",1 n
same,"TEAE: Anxiety, percent","Safety Set, N = 106",(9.4) %
same,"TEAE: Anxiety, subjects","Safety Set, N = 106",10 n
same,"TEAE: Aspartate aminotransferase increased, subjects","Safety Set, N = 106",0 n
same,"TEAE: Attention deficit hyperactivity disorder, percent","Safety Set, N = 106",(0.9) %
same,"TEAE: Attention deficit hyperactivity disorder, subjects","Safety Set, N = 106",1 n
same,"TEAE: Back pain, percent","Safety Set, N = 106",(0.9) %
same,"TEAE: Back pain, subjects","Safety Set, N = 106",1 n
same,"TEAE: Bronchitis, percent","Safety Set, N = 106",(1.9) %
same,"TEAE: Bronchitis, subjects","Safety Set, N = 106",2 n
same,"TEAE: COVID-19, percent","Safety Set, N = 106",(2.8) %
same,"TEAE: COVID-19, subjects","Safety Set, N = 106",3 n
same,"TEAE: Chlamydial infection, percent","Safety Set, N = 106",(0.9) %
same,"TEAE: Chlamydial infection, subjects","Safety Set, N = 106",1 n
